Chains of the proteins cited; added tags and fusions are not shown.
UniProt Q9HBX9, whole entry: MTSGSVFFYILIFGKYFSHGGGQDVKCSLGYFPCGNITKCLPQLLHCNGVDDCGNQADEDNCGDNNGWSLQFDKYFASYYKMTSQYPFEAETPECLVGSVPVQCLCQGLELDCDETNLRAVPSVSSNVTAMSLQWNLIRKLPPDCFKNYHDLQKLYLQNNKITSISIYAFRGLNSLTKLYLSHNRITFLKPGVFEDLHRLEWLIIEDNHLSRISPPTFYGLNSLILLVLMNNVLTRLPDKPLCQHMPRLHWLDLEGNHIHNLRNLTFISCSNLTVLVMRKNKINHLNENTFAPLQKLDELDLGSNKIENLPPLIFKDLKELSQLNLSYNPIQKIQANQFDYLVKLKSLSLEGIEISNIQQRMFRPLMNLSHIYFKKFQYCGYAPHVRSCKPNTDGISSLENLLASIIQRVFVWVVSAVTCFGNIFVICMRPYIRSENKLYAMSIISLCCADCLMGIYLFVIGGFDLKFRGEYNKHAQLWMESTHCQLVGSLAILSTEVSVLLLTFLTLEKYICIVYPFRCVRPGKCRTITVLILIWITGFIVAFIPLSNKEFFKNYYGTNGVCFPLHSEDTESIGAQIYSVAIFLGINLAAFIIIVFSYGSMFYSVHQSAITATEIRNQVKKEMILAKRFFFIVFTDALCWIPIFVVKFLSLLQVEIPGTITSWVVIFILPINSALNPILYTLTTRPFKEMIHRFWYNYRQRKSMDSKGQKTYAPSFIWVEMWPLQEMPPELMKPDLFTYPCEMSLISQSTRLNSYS

The target in this test is human RXFP1 (Homo sapiens, UniProt Q9HBX9). Put plainly: RXFP1 cAMP assay (hRXFP1 HEK293 cAMP assay, HTRF). The following applies: read-out: cAMP hRXFP1 HEK293 Assay EC50, HEK293 cells stably expressing human RXFP1, 30 min at room temperature. Background: Changes in cAMP serve as a functional read-out for many G protein-coupled receptors.
By EC50 is commonly meant the midpoint of the concentration-response curve. Turning to `COc1ccc(C2=NOC3(CCN(C(=O)OC(C)(C)C)C3)C2)cc1C(=O)N[C@H]1[C@@H](C(=O)Nc2ccc(F)c(C(F)(F)F)c2)[C@H]2CC[C@@H]1/C2=C\C1CC1` (stereo partly shown), the 50% effective concentration (EC50) was 0.359 µM. Regarding `COc1ccc(C2=NOC3(CCOCC3)C2)cc1C(=O)N[C@@H]1C2CCC(/C2=C/C(F)(F)F)[C@@H]1C(=O)Nc1ccc(F)c(C(F)(F)F)c1` (stereo partly shown), the EC50 turned out to be 0.786 µM. On to `COc1cc(F)c(F)cc1C(=O)N[C@@H]1C2CCC(C2=Cc2cccc(OC(F)(F)F)c2)[C@@H]1C(=O)Nc1ccc(F)c(C(F)(F)F)c1` (stereo partly shown), for which the concentration giving a half-maximal response (EC50) turned out to be 0.077 µM. As for `COc1ccc(N2CCCS2(=O)=O)cc1C(=O)N[C@@H]1C2CCC(/C2=C/C(F)(F)F)[C@@H]1C(=O)Nc1ccc(F)c(C(F)(F)F)c1` (stereo partly shown), the figure is 0.338 µM; as for `O=C(N[C@@H]1C2CCC(/C2=C/C(F)(F)F)[C@@H]1C(=O)Nc1ccc(F)c(C(F)(F)F)c1)c1cc(Br)ccc1OCCO` (stereo partly shown), 1.09 µM. As for `COc1ccc(C2=NOC3COCC23)cc1C(=O)N[C@H]1[C@@H](C(=O)NC2CC3(CCC3)C2)[C@H]2CC[C@@H]1/C2=C\C1CC1` (stereo partly shown), the concentration for a half-maximal effect (EC50) turned out to be 0.106 µM. Take `COc1ccc(-c2cc(NS(C)(=O)=O)ccc2C)cc1C(=O)N[C@@H]1C2CCC(C2=C(C)C)[C@@H]1C(=O)Nc1ccc(F)c(C(F)(F)F)c1` (stereo partly shown): the 50% effective concentration (EC50) came out at 0.033 µM. As to `COc1cc(C)c(C2=NOC3CC(O)CC23)cc1C(=O)N[C@H]1[C@@H](C(=O)Nc2ccc(F)c(C(F)(F)F)c2)[C@H]2CC[C@@H]1/C2=C\C1CC1` (single isomer, unassigned) [486], the EC50 is 0.0078 µM. Consider `COc1ccc(C2=NO[C@H]3C[C@@H](O)C[C@@H]23)cc1C(=O)N[C@@H]1C2CCC(/C2=C/C(F)(F)F)[C@@H]1C(=O)Nc1ccc(F)c(C(F)(F)F)c1` (stereo partly shown), for which the EC50 is 0.085 µM. As for `COc1cc(F)c(F)cc1C(=O)N[C@@H]1C2CCC([C@@H]1C(=O)Nc1ccc(F)c(C(F)(F)F)c1)C21OCC(c2ccccc2)O1` (stereo partly shown), the figure is 4.5 µM; as for `COc1c(F)cc(C2=NOC3CC(CO)CC23)cc1C(=O)N[C@H]1[C@@H](C(=O)Nc2ccc(F)c(C(F)(F)F)c2)[C@H]2CC[C@@H]1/C2=C\C1CC1` (stereo partly shown), 0.0035 µM; as for `COc1cc(C)c(C2=NOC3CC(O)CC23)cc1C(=O)N[C@H]1[C@@H](C(=O)Nc2ccc(F)c(C(F)(F)F)c2)[C@H]2CC[C@@H]1/C2=C\C1CC1` (single isomer, unassigned) [590], 0.0861 µM.

Consider `COc1ccc(-c2cnn(CCO)c2)cc1C(=O)NC1C2CCC(C2=CC(F)(F)F)C1C(=O)Nc1ccc(F)c(C(F)(F)F)c1` (stereo not shown), for which the EC50 is 1.18 µM. With `COc1ccc(-n2ccccc2=O)cc1C(=O)N[C@@H]1C2CCC(/C2=C/C(F)(F)F)[C@@H]1C(=O)Nc1ccc(F)c(C(F)(F)F)c1` (stereo partly shown), the EC50 amounted to 0.662 µM. The value for `COc1ccc(C2CCN(C(=O)c3ccccc3)C2)cc1C(=O)NC1C2CCC(C2=CC(F)(F)F)C1C(=O)Nc1ccc(F)c(C(F)(F)F)c1` (stereo not shown) was 0.254 µM.

As to `COc1ccc(C2CN(C(C)=O)C2)cc1C(=O)NC1C2CCC(C2=CC(F)(F)F)C1C(=O)Nc1ccc(F)c(C(F)(F)F)c1` (stereo not shown), the concentration for a half-maximal effect (EC50) was 1.66 µM. Turning to `COc1ccc(C2=NOC3CN(C(=O)CO)CC23)cc1C(=O)N[C@H]1[C@@H](C(=O)Nc2ccc(F)c(C(F)(F)F)c2)[C@H]2CC[C@@H]1/C2=C\C1CC1` (single isomer, unassigned), the 50% effective concentration (EC50) came to 0.0022 µM. On to `COc1ccc(N2CC(CNC(=O)OC(C)(C)C)CC2=O)cc1C(=O)N[C@H]1[C@@H](C(=O)Nc2ccc(F)c(C(F)(F)F)c2)[C@H]2CC[C@@H]1/C2=C\C1CC1` (stereo partly shown), for which the concentration for a half-maximal effect (EC50) worked out at 1.47 µM.

Turning to `COc1ccc(N2CCCCC2=O)cc1C(=O)N[C@@H]1C2CCC(/C2=C/C(F)(F)F)[C@@H]1C(=O)Nc1ccc(F)c(C(F)(F)F)c1` (stereo partly shown), the 50% effective concentration (EC50) stood at 1.04 µM.

Consider `COc1cc(F)c(F)cc1C(=O)N[C@H]1[C@@H](C(=O)Nc2ccc(F)c(C(F)(F)F)c2)[C@H]2CC[C@@H]1/C2=C\C#Cc1ccccc1`, for which the EC50 was found to be 2.2 µM. For the compound `COc1ccc(N2CCCC2=O)cc1C(=O)N[C@H]1[C@@H](C(=O)Nc2ccc(F)c(C(F)(F)F)c2)[C@H]2CC[C@@H]1/C2=C\C(F)(F)F`, the EC50 was 0.788 µM. Regarding `COc1c(F)cc(C2=NOC3CC(C)(CO)CC23)cc1C(=O)N[C@H]1[C@@H](C(=O)N[C@H](C)C2(C)CC2)[C@H]2CC[C@@H]1/C2=C\C1CC1` (single isomer, unassigned), the EC50 worked out at 0.0004 µM.

As to `COc1ccc(C2=NOC3C4CCC(C4)C23)cc1C(=O)N[C@H]1[C@@H](C(=O)Nc2ccc(F)c(C(F)(F)F)c2)[C@H]2CC[C@@H]1/C2=C\C1CC1` (single isomer, unassigned) [428], the EC50 stood at 0.006 µM.

As to `COc1ccc(C2CCOCC2)cc1C(=O)NC1C2CCC(C2=CC(F)(F)F)C1C(=O)Nc1ccc(F)c(C(F)(F)F)c1` (stereo not shown), the EC50 was determined as 0.747 µM. As for `COc1ccc(-c2cc(C(=O)O)ccc2F)cc1C(=O)N[C@@H]1C2CCC(/C2=C/C2CC2)[C@@H]1C(=O)NC(C)(C)c1cccc(C(F)(F)F)c1` (stereo partly shown), the figure is 1.7 µM; as for `COc1ccc(-c2cc(C(NC(=O)c3cccc(Cl)c3)C(=O)O)ccc2F)cc1C(=O)N[C@@H]1C2CCC(/C2=C/C(F)(F)F)[C@@H]1C(=O)Nc1ccc(F)c(C(F)(F)F)c1` (stereo partly shown), 0.005 µM. As for `COc1ccc(N2CCC(OCc3ccccc3)C2)cc1C(=O)N[C@@H]1C2CCC(/C2=C/C(F)(F)F)[C@@H]1C(=O)Nc1ccc(F)c(C(F)(F)F)c1` (stereo partly shown), the figure is 0.369 µM; as for `COc1ccc(-c2cc(NS(C)(=O)=O)ccc2F)cc1C(=O)N[C@@H]1C2CCC(/C2=C/C(F)(F)F)[C@@H]1C(=O)Nc1ccc(F)c(C(F)(F)F)c1` (stereo partly shown), 0.02 µM.

As for `COc1ccc(C2=NOC3C4CCC(C4)C23)cc1C(=O)N[C@H]1[C@@H](C(=O)Nc2ccc(F)c(C(F)(F)F)c2)[C@H]2CC[C@@H]1/C2=C\C1CC1` (single isomer, unassigned) [685], the EC50 turned out to be 0.645 µM. Take `COc1ccc(N2CCCC(C(=O)O)C2)cc1C(=O)N[C@@H]1C2CCC(/C2=C/c2ccccc2)[C@@H]1C(=O)Nc1ccc(F)c(C(F)(F)F)c1` (single isomer, unassigned): the EC50 turned out to be 0.37 µM. As for `COc1ccc(N2CCC(O)C2)cc1C(=O)N[C@@H]1C2CCC(/C2=C/C(F)(F)F)[C@@H]1C(=O)Nc1ccc(F)c(C(F)(F)F)c1` (stereo partly shown), the figure is 1.36 µM; as for `COc1ccccc1C(=O)NC1C2CCC(C2=CC(F)(F)F)C1C(=O)Nc1ccc(F)c(C(F)(F)F)c1` (stereo not shown), 0.75 µM; as for `COc1cc(F)c(F)cc1C(=O)N[C@@H]1C2CCC(C2=CC(=O)NCCCCc2ccccc2)[C@@H]1C(=O)Nc1ccc(F)c(C(F)(F)F)c1` (stereo partly shown), 3.8 µM. As for `O=C(NC1C2CCC(C2=CC(F)(F)F)C1C(=O)Nc1ccc(F)c(C(F)(F)F)c1)c1c(F)cccc1OCc1ccccc1` (stereo not shown), the figure is 2.52 µM. Regarding `COc1ccc(-c2ccc(N3CCOCC3)nc2)cc1C(=O)N[C@@H]1C2CCC(/C2=C/C(F)(F)F)[C@@H]1C(=O)Nc1ccc(F)c(C(F)(F)F)c1` (stereo partly shown), the EC50 came to 0.072 µM. Turning to `COc1ccc(-c2ccc(N3CCOCC3)nc2)cc1C(=O)N[C@@H]1C2CCC(/C2=C/C(C)C)[C@@H]1C(=O)Nc1ccc(F)c(C(F)(F)F)c1` (stereo partly shown), the EC50 was 0.025 µM.

In the case of `COc1ccc(C2CCNC2)cc1C(=O)NC1C2CCC(C2=CC(F)(F)F)C1C(=O)Nc1ccc(F)c(C(F)(F)F)c1` (stereo not shown), the 50% effective concentration (EC50) is 0.807 µM. For the compound `COc1ccc(C2=NOC3C4CC(C(=O)N4)C23)cc1C(=O)N[C@H]1[C@@H](C(=O)Nc2ccc(F)c(C(F)(F)F)c2)[C@H]2CC[C@@H]1/C2=C\C1CC1` (single isomer, unassigned) [631], the EC50 is 0.185 µM. `COc1ccc(-c2cc[nH]n2)cc1C(=O)NC1C2CCC(C2=CC(F)(F)F)C1C(=O)Nc1ccc(F)c(C(F)(F)F)c1` (stereo not shown): the EC50 was determined as 0.707 µM. In the case of `COc1ccc(C2=NOC3C4CC(C(=O)N4)C23)cc1C(=O)N[C@H]1[C@@H](C(=O)Nc2ccc(F)c(C(F)(F)F)c2)[C@H]2CC[C@@H]1/C2=C\C1CC1` (single isomer, unassigned) [576], the half-maximal effective concentration (EC50) amounted to 0.0692 µM. On to `COc1ccc(C2=NOC3C4CCC(C4)C23)cc1C(=O)N[C@H]1[C@@H](C(=O)Nc2ccc(F)c(C(F)(F)F)c2)[C@H]2CC[C@@H]1/C2=C\C1CC1` (single isomer, unassigned) [469], for which the EC50 was found to be 0.0043 µM. As for `COc1ccc(N2CCCC(N)C2)cc1C(=O)NC1C2CCC(C2=CC(F)(F)F)C1C(=O)Nc1ccc(F)c(C(F)(F)F)c1` (stereo not shown), the concentration for a half-maximal effect (EC50) turned out to be 3.56 µM. As for `COc1ccc(C2CC(O)C(=O)N2C)cc1C(=O)N[C@H]1[C@@H](C(=O)Nc2ccc(F)c(C(F)(F)F)c2)[C@H]2CC[C@@H]1/C2=C\C(F)(F)F` (stereo partly shown), the 50% effective concentration (EC50) came out at 1.2 µM. Take `COc1ccc(-c2cc(C(O)C(F)(F)F)ccc2F)cc1C(=O)N[C@@H]1C2CCC(/C2=C/C2CC2)[C@@H]1C(=O)Nc1ccc(F)c(C(F)(F)F)c1` (single isomer, unassigned): the concentration giving a half-maximal response (EC50) was 0.009 µM. For the compound `COc1ccc(C2=NOC3COCC23)cc1C(=O)N[C@H]1[C@@H](C(=O)NC2(C)CCC2)[C@H]2CC[C@@H]1/C2=C\C1CC1` (stereo partly shown), the EC50 came out at 0.0239 µM. `COc1ccc(-c2cc(NS(C)(=O)=O)ccc2F)cc1C(=O)N[C@@H]1C2CCC(C2=Cc2cnoc2)[C@@H]1C(=O)Nc1ccc(F)c(C(F)(F)F)c1` (stereo partly shown): the half-maximal effective concentration (EC50) is 0.008 µM. Regarding `CN(C)c1c(Cl)cc(C2=NOC3COCC23)cc1C(=O)N[C@H]1[C@@H](C(=O)Nc2ccc(F)c(C(F)(F)F)c2)[C@H]2CC[C@@H]1/C2=C\C(F)(F)F` (single isomer, unassigned), the EC50 was 0.168 µM.

For `CC(C)=C1C2CCC1[C@H](C(=O)Nc1ccc(F)c(C(F)(F)F)c1)[C@@H]2NC(=O)c1cc(C#N)ccc1F` (stereo partly shown), the half-maximal effective concentration (EC50) was found to be 1.1 µM.

On to `COc1ccc(C2=NOC3C4CC(C(O)C4O)C23)cc1C(=O)N[C@H]1[C@@H](C(=O)Nc2ccc(F)c(C(F)(F)F)c2)[C@H]2CC[C@@H]1/C2=C\C1CC1` (single isomer, unassigned), for which the EC50 was 0.507 µM.

For `COc1cc(C)c(C2=NOC3CC(O)CC23)cc1C(=O)N[C@H]1[C@@H](C(=O)Nc2ccc(F)c(C(F)(F)F)c2)[C@H]2CC[C@@H]1/C2=C\C1CC1` (single isomer, unassigned) [471], the EC50 is 0.0045 µM.

Take `COc1ccc(-n2ncccc2=O)cc1C(=O)N[C@H]1[C@@H](C(=O)Nc2ccc(F)c(C(F)(F)F)c2)[C@H]2CC[C@@H]1/C2=C\C(F)(F)F`: the 50% effective concentration (EC50) was 0.213 µM.

As to `COc1ccc(-c2ccc(C3=NOC4CC(O)CC34)cc2F)cc1C(=O)N[C@H]1[C@@H](C(=O)Nc2ccc(F)c(C(F)(F)F)c2)[C@H]2CC[C@@H]1/C2=C\C1CCCC1` (stereo partly shown), the EC50 stood at 0.0082 µM.

The record behind these values is US20250221966A1, “RXFP1 AGONISTS” (BRISTOL-MYERS SQUIBB COMPANY, priority 2021, published 2025).
